B1: Zinc finger protein SNAI1 (Homo sapiens), O95863 (parent)
chain: MPRSFLVRKPSDPNRKPNYSELQDSNPEFTFQQPYDQAHLLAAIPPPEILNPTASLPMLIWDSVLAPQAQPIAWASLRLQESPRVAELTSLSDEDSGKGSQPPSPPSPAPSSFSSTSVSSLEAEAYAAFPGLGQVPKQLAQLSEAKDLQARKAFNCKYCNKEYLSLGALKMHIRSHTLPCVCGTCGKAFSRPWLLQGHVRTHTGEKPFSCPHCSRAFADRSNLRAHLQTHSDVKKYQCQACARTFSRMSLLHKHQESGCSGCPR

Variants of: B1
Settings: with ep300_human EP300, Q09472

effect of a mutation on the interaction	Variant
decreasing interaction strength	K146R

Variants of: B1
Settings: with ep300_human EP300, Q09472
Remark: another data set of the same source

effect of a mutation on the interaction	Variant
decreasing interaction strength	K187R

Variants of: B1
Settings: with cbp_human CREBBP

effect of a mutation on the interaction	Variant
disrupting interaction strength	K146R;K187R

Variants of: B1
Settings: with tf65_human RELA

effect of a mutation on the interaction	Variant
disrupting interaction strength	K146R;K187R

— IntAct's records for PubMed 25314079
